Results from patent US20150030697, “Treatments for gastrointestinal disorders” (published 2015).

Test system: T1, Peptide 1
T1 sequence: CCSLCCNPACTGCY

Potato acid phosphatase (PoAP)
Peptide 1 Dephospho (%), LC-MS after phosphatase treatment, pH 5: 22.1%
Peptide 1 Remaining (%), LC-MS after phosphatase treatment, pH 5: 77.8%
